These are literature values, as cited in US9302977B2, “Method of making monomethyl fumarate” (XenoPort, Inc., priority 2013, dated 2016).

The test system of this series is amyotrophic lateral sclerosis. To be noted: in vivo.

Turning to `Nc1nc2ccc(OC(F)(F)F)cc2s1` [riluzole], the “extension of survival in ALS” value is given as “about three”.
